The series is described as follows: Solubility / dispersibility in solvents.

With “Acetamido Cetyl Dimethyl Ammonium Glucuronate [CDA-gluc]”, under “water, MeOH, DMSO, CHCl3”, the “dispersibility in water and non-aqueous media” value was “easily dispersed”.

Consider “cetyltrimethylammonium glucuronate [CTA-gluc, reference compound]”, for which the solubility in chloroform entry (chloroform) was “poorly soluble”.
